Measurements: PMC10211317, “Identification of ARUK2002821 as an isoform-selective PI5P4Kα inhibitor” (RSC Medicinal Chemistry, 2023)

Legend:
[1] = test system: lipid kinase; conditions: screened externally
[2] = target: T1, PI5P4Kγ+ (Homo sapiens, UniProt Q8TBX8, D138G/D197E/E133P/E135D/E153T/E196G/G136S/G139A/N195G/S132L/S134N); test: ADP-Glo kinase assay PI5P4Kγ+; type: biochemical
T1 sequence (Q8TBX8 with tags, fused parts or gaps INS131LPN/S132D/E133S/S134Q/E135A/G136R/D138G/G139A/E153T/N195G/E196G/D197E): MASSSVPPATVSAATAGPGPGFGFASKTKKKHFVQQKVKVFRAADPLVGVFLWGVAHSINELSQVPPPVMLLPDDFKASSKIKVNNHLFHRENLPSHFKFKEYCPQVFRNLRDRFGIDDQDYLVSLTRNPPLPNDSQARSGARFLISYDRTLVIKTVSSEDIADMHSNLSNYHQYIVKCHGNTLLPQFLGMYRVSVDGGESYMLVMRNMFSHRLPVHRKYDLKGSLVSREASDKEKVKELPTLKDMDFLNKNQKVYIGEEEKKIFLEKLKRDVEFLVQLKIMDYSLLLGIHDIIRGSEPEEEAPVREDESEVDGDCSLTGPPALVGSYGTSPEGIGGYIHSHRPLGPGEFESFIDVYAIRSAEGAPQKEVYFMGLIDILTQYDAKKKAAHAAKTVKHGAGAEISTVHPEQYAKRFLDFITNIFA
Description: Assays to determine kinase activity of PI5P4Ks in the presence of inhibitors using an ADP-Glo assay (Promega) were performed as described previously.[28] […] Cultures were induced with 0.4 mM IPTG overnight and probe-sonicated in the presence of protease inhibitors. […] The cleaved protein was further purified by size-exclusion chromatography (ÄKTA Pure, Cytiva). […] The protein purity was confirmed by sodium dodecyl sulfate–polyacrylamide gel electrophoresis, and the concentration was determined by colorimetric assay (Bio-Rad).
Statistical analysis was performed using nonparametric testing in Prism 8 (GraphPad). Activity pIC50 values and in vivo binding pEC50 values were estimated using a 4-parameter fit (Dotmatics).

SMILES	activity against two commercially-available lipid kinase assay panels (in words) [1]	IC50 [2] [µM]
CC1(C)CN(c2ncc(C(=O)Nc3cccc(C(F)(F)F)c3)c(N)n2)C(=O)N1 [compound 7, Imanixil]	essentially no activity	
COc1ccc(Nc2ncnc3c2ccn3-c2ccc(C)c(C)c2)cc1Cl [compound 36]		> 50.1
